Experimental data: patent publication US6258839A, “Isolation of naturally occuring isoflavanone and some clinical uses thereof” (priority 1997, dated 2001)

Assays:
[1] = system: HIV-1 infected cells (p24 production); assay: extended time course assay, p24 and XTT; conditions: p24 production; compared with Nevirapine
Mono/MAC's = assay: growth inhibition of Mono/MAC's in anti-HIV test

**Q.** How did the “duration of cell protection after administration” value [1] turn out when COc1c(O)cc(C2COc3cc(O)cc(O)c3C2=O)cc1CC=C(C)C (racemic) [PMZ-1] was run?
**A.** more than 48 hours

**Q.** What about the IC50 (Mono/MAC's) of the same compound?
**A.** > 200 µM
